Laboratory results published in patent US8222288B2, “Small molecule inhibitors of MDM2 and the uses thereof” (The Regents of the University of Michigan, priority 2006, dated 2012).

Tested on: HCT116 p53KO cells
Experiment: Cell growth inhibition, HCT116 p53KO
Settings: Homo sapiens, HCT-116, read-out: HCT116 p53KO IC50 (μM), HCT116 p53KO; single runs and mean ± SD line

COC(C)(C)C[C@H]1N[C@@H](C(=O)NCC[C@H](O)CO)[C@H](c2ccc(F)c(Cl)c2)[C@@]12C(=O)Nc1cc(Cl)c(F)cc12 [MI-319-7]
IC50: > 30 µM
